Assay: Peptide reactivity with cysteine (N-acetyl cysteine methyl ester), LC/MS
Details: 1 mM N-acetyl cysteine methyl ester, within 2.5 h, room temperature, HEPES 25 mM pH 7.5, 100 mM NaCl, 10 mM MgCl2

Ac-RAH-(pT)-(mC)-PASLQ-NH2 [Peptide 8]
peptide reacted with cysteine: > 50%
